Laboratory results as given in ChEMBL document CHEMBL1144610, “High-affinity carbamate analogues of morphinan at opioid receptors” (Bioorg Med Chem Lett, 2007).

The chains behind the UniProt entries cited, without tags or fusion partners. Where a name states a change or a piece, a line headed by the entry shows the natural chain unless it says otherwise.
UniProt P41145: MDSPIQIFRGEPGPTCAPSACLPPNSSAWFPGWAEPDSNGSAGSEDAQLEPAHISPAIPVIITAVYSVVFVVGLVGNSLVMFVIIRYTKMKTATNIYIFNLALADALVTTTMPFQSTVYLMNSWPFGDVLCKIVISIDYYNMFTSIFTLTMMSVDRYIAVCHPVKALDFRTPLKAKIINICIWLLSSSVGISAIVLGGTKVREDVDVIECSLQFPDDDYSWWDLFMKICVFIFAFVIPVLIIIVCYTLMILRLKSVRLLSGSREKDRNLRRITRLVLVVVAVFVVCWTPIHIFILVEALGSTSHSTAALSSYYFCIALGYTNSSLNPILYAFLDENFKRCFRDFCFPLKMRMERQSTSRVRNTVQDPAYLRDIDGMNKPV
UniProt P35372, whole entry, looked up: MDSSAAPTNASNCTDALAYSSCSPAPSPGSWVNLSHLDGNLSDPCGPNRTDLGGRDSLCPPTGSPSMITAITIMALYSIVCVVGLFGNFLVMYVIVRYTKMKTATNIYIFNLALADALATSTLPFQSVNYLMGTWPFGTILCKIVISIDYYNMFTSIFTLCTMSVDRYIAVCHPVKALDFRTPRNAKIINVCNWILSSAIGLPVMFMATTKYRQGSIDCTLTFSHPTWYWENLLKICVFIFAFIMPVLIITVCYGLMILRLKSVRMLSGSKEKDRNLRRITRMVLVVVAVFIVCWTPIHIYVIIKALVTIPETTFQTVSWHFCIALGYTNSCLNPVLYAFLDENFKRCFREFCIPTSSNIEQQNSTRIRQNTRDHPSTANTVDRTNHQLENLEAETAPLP
UniProt P41143, whole entry, looked up: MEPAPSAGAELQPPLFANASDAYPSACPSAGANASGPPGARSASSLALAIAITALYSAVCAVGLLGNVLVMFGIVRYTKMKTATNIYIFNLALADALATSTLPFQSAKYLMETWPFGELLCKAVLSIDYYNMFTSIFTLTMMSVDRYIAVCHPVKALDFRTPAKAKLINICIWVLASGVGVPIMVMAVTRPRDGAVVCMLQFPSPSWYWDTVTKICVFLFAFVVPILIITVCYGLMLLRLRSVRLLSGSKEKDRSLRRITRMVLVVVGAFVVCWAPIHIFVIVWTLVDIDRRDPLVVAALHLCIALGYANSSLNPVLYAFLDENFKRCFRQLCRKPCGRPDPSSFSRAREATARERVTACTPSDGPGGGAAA

Assays:
[1] = target: Opioid receptors; mu & kappa (Homo sapiens) (UniProt P41145+P35372); assay: Selectivity for kappa opioid receptor over mu opioid receptor expressed in CHO cells; type: cell-based
[2] = target: Opioid receptors; delta & kappa (Homo sapiens) (UniProt P41145+P41143); assay: Selectivity for kappa opioid receptor over delta opioid receptor; type: protein assay

Row | SMILES | Ratio Ki [1] | Ratio Ki [2]
1 | CN1CC[C@]23CCCC[C@H]2[C@H]1Cc1ccc(O)cc13 | 0.09 | 2
2 | Oc1ccc2c(c1)[C@@]13CCCC[C@H]1[C@@H](C2)N(CC1CCC1)CC3 [BUTORPHAN] | 3 | 70
